Assay results from patent US20150302167A1, “SYSTEM AND METHOD FOR DEVELOPMENT OF THERAPEUTIC SOLUTIONS” (CELLWORKS RESEARCH INDIA PRIVATE LIMITED, priority 2012, published 2015).

Tests used:
[1] = Published clinical trial data of RA drugs: ACR20/ACR50/ACR70 response, drug vs placebo; format: in vivo, human
Source text: In another embodiment, American College of Rheumatoid (ACR) scoring system and DAS28 scoring system are used to determine the extent of improvement in the RA disease symptoms on treatment with a drug.
In another embodiment, the ACR scoring system involves three main scores: ACR20 score pertaining to 20% improvement in the disease, ACR50 score pertaining to 50% improvement in the disease and ACR70 score pertaining to 70% improvement in the disease. Clinically, the calculation of the ACR score is dependent on inputs from a patient Health Assessment Questionnaire (HAQ) and analysis of the percentage improvement in the RA disease phenotypes. […]

[2] = Type: Drug; published clinical trial data; cited from earlier work
[3] = Type: Diff. (drug minus placebo), * significant difference > 15%

ABATACEPT
ACR20 Diff. [1, 3]: 15.5% | ACR50 Diff. [1, 3]: 18* % | ACR70 Diff. [1, 3]: 12.1% | Highest Significant Clinical Disease Remission Score ([1]; highest ACR level with significant difference > 15% over placebo): ACR50 (ACR50 score pertaining to 50% improvement in the disease) | ACR20 [2]: 60.8% | ACR50 [2]: 45.3% | ACR70 [2]: 17.6%
